# Molecular target: CBP BRD protein (Homo sapiens, UniProt Q92793)
# The chains behind the UniProt entries cited, without tags or fusion partners. Residues count along the entry.
# UniProt Q92793, 1085-1192 limits assumed: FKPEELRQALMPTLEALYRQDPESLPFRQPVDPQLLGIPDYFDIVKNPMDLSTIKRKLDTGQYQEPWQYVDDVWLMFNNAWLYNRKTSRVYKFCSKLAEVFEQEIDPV
# Assay: CBP inhibitory activity, TR-FRET assay of the CBP bromodomain
# Settings: read-out: CBP BRD IC50, CBP BRD protein 7.5 nM, Ac-H4 peptide 85 nM, room temperature 2 hours
# Procedure: A time resolved fluorescence resonance energy transfer (TR-FRET) experiment was used to verify the activity of CBP bromodomain.
# The assay was performed in a final volume of 14 µl, optimized based on a CREBBP time resolved fluorescence resonance energy transfer (TR-FRET) assay kit (BPS Bioscience, cat. 32619) to maximize an assay window, and performed in a final volume of 14 µl, while maximizing the assay window. A TR-FRET fluorescence acceptor and a Tb donor were diluted in an assay buffer containing 2-[4-(2-hydroxyethyl)piperazin-1-yl]ethanesulfonic acid (hereafter, referred to as an assay buffer, BPS Bioscience, cat. 33012), and 3 µl of each solution was transferred to all wells of a white 384-low-volume well plate (Corning, cat. 4513). 2 µl of 4X Ac-H4 peptide (final concentration 85 nM) was transferred to high control wells and test wells. Each compound was prepared at 10 concentration points by serially diluting 3-fold from the highest concentration in a dimethyl sulfoxide solvent. The compound at each concentration was then diluted in the assay buffer to prepare a diluted compound solution that was 4-fold more concentrated than the final concentration. 2 µl of each compound or dimethyl sulfoxide prepared in this way was distributed into an assay plate so that the final test concentration was a minimum of 0.5 µM to a maximum of 10 µM (final dimethyl sulfoxide concentration 1%). 6 µL of 1X assay buffer was added to low control wells and 2 µl was added to high control and test wells. Then, 2 µl of 4X CBP BRD protein (final concentration 7.5 nM, BPS bioscience, cat 31128) was added to initiate a PPI reaction. The plate was reacted at room temperature for 2 hours before measuring the signal. The TR-FRET signal was measured using an EnVision Multilabel plate reader (PerkinElmer; Mirror LNACE/DELFIA Dual/Bias). For data analysis, the values of each well were obtained using a TR-FRET ratio ((Signal 665 nm/Signal 615 nm) × 20000). Data analysis was performed using the TR-FRET ratio ((Signal 665 nm/Signal 615 nm) × 20000). Data were reported as percent inhibition compared to control wells based on the following equation: %Activity = ((FRETcompound - FRETLow av)/(FRETHigh av - FRETLow av)) × 100. IC50 analysis was determined by standard 4 parameter curve fitting according to an algorithm using GraphPad Prism 7.0 (GraphPad Software Inc., La Jolla, CA, USA). All data are expressed as mean ± standard error of the mean (SEM).
row,Compound,IC50 [µM]
1,CCn1c(=O)n(CC)c2cc(-n3c(-c4c[nH]c5cccc(F)c45)nc4ccc(S(=O)(=O)NC)cc43)ccc21,> 5
2,CNS(=O)(=O)c1ccc2nc(C3CCCC(=O)N3)n(-c3ccc4c(c3)n(C)c(=O)n4C)c2c1 (stereo not drawn),> 5
3,CCNS(=O)(=O)c1ccc2nc(-c3c[nH]c4cc(C)ccc34)n(-c3ccc4c(c3)n(C)c(=O)n4C)c2c1,0.5 to 5
4,CNS(=O)(=O)c1ccc2nc(-c3c[nH]c4cc(F)c(F)cc34)n(-c3ccc4c(c3)n(C)c(=O)n4C)c2c1,0.5 to 5
5,Cc1ccc2c(-c3nc4ccc(S(=O)(=O)NCC5CC5)cc4n3-c3ccc4c(c3)n(C)c(=O)n4C)c[nH]c2c1,0.5 to 5
6,CNS(=O)(=O)c1ccc2nc(-c3cccc4[nH]ncc34)n(-c3ccc4c(c3)n(C)c(=O)n4C)c2c1,> 5
7,CNS(=O)(=O)c1ccc2nc(-c3coc4ccccc34)n(-c3ccc4c(c3)n(C)c(=O)n4C)c2c1,0.5 to 5
8,CNS(=O)(=O)c1ccc2nc(-c3c[nH]c4cc(Br)ncc34)n(-c3ccc4c(c3)n(C)c(=O)n4C)c2c1,> 5
9,Cn1cncc1-c1nc2ccccc2n1-c1ccc2c(c1)n(C)c(=O)n2C,> 5
10,CNS(=O)(=O)c1ccc2nc(-c3cn(C)nc3C3CC3)n(-c3ccc4c(c3)n(C)c(=O)n4C)c2c1,> 5
11,CNS(=O)(=O)c1ccc2nc(-c3cn(C)c4cc(C)ccc34)n(-c3ccc4c(c3)n(C)c(=O)n4C)c2c1,> 5
12,CNS(=O)(=O)c1ccc2nc(C(=O)Nc3cccnc3)n(-c3ccc4c(c3)n(C)c(=O)n4C)c2c1,> 5
13,Cn1c(=O)n(C)c2cc(-n3c(-c4ccccc4)nc4ccccc43)ccc21,> 5
14,CNS(=O)(=O)c1ccc2nc(-c3c[nH]c4ccc(C(F)(F)F)cc34)n(-c3ccc4c(c3)n(C)c(=O)n4C)c2c1,> 5
15,CNS(=O)(=O)c1ccc2nc(-c3cnn(C)c3)n(-c3ccc4c(c3)n(C)c(=O)n4C)c2c1,0.5 to 5
16,CNS(=O)(=O)c1ccc2nc(-c3c[nH]c4cc(C)ccc34)n(-c3ccc4c(c3)C(C)(C)C(=O)N4C)c2c1,> 5
17,CNS(=O)(=O)c1ccc2nc([C@@H]3CCCC(=O)N3c3ccc(F)c(F)c3)n(-c3ccc4c(c3)n(C)c(=O)n4C)c2c1,> 5
18,CNS(=O)(=O)c1ccc2nc(C3CCOC(C)(C)C3)n(-c3ccc4c(c3)n(C)c(=O)n4C)c2c1 (stereo not drawn),> 5
19,CNS(=O)(=O)c1ccc2nc(-c3c[nH]c4ccc(F)cc34)n(-c3ccc4c(c3)n(C)c(=O)n4C)c2c1,0.5 to 5
20,CNS(=O)(=O)c1ccc2nc(-c3c[nH]c4cc(C5CCN(C(=O)OC(C)(C)C)CC5)ccc34)n(-c3ccc4c(c3)n(C)c(=O)n4C)c2c1,> 5
21,Cn1c(=O)n(C)c2cc(-n3c(-c4ccc(Br)cc4)nc4ccccc43)ccc21,> 5
22,CNS(=O)(=O)c1ccc2nc(-c3cn(CCN4CCCC4)c4cc(C)ccc34)n(-c3ccc4c(c3)n(C)c(=O)n4C)c2c1,0.5 to 5
23,CNS(=O)(=O)c1ccc2nc(-c3cn(CC4CC4)c4cc(C)ccc34)n(-c3ccc4c(c3)n(C)c(=O)n4C)c2c1,> 5

row,Compound,IC50 [µM]
1,Cn1c(=O)n(C)c2cc(-n3c(-c4cc5ccccc5[nH]4)nc4ccccc43)ccc21,> 5
2,Cc1cccc(OCCN(C)c2ncnc3c2nc(-c2ccc4[nH]ccc4c2)n3-c2ccc3c(c2)n(C)c(=O)n3C)c1,> 5
3,CN(Cc1cccc(-n2cccc2)c1)c1ncnc2c1nc(-c1cccc3[nH]cnc13)n2-c1ccc2c(c1)n(C)c(=O)n2C,> 5
4,CN(C)c1ncnc2c1nc(-c1c[nH]c3cccc(F)c13)n2-c1ccc2c(c1)n(C)c(=O)n2C,0.5 to 5
5,CNS(=O)(=O)c1ccc2nc(-c3cnn4cccnc34)n(-c3ccc4c(c3)n(C)c(=O)n4C)c2c1,0.5 to 5
6,Cn1c(=O)n(C)c2cc(-n3c(-c4c[nH]c5ccccc45)nc4ccccc43)ccc21,> 5
7,CNS(=O)(=O)c1ccc2nc(-c3cncc4ccccc34)n(-c3ccc4c(c3)n(C)c(=O)n4C)c2c1,> 5
8,CNS(=O)(=O)c1ccc2nc(-c3nccc4ccccc34)n(-c3ccc4c(c3)n(C)c(=O)n4C)c2c1,0.5 to 5
9,Cn1c(=O)n(C)c2cc(-n3c(-c4cnc[nH]4)nc4ccccc43)ccc21,> 5
10,CNS(=O)(=O)c1ccc2nc(-c3c[nH]c4ccc(Br)cc34)n(-c3ccc4c(c3)n(C)c(=O)n4C)c2c1,> 5
11,Cc1ccc2c(-c3nc4c(Cl)nccc4n3-c3ccc4c(c3)n(C)c(=O)n4C)c[nH]c2c1,> 5
12,Cc1ccc2c(-c3nc4c(N(C)CCc5ccsc5)ncnc4n3-c3ccc4c(c3)n(C)c(=O)n4C)c[nH]c2c1,> 5
13,CNS(=O)(=O)c1ccc2nc(-c3c[nH]c4ccc(Cl)cc34)n(-c3ccc4c(c3)n(C)c(=O)n4C)c2c1,> 5
14,CNS(=O)(=O)c1ccc2nc(C3CCOC3)n(-c3ccc4c(c3)n(C)c(=O)n4C)c2c1 (stereo not drawn),> 5
15,CNS(=O)(=O)c1ccc2nc(-c3c[nH]c4c(Br)cccc34)n(-c3ccc4c(c3)n(C)c(=O)n4C)c2c1,0.5 to 5
16,CNS(=O)(=O)c1ccc2nc(-c3c[nH]c4cc(Br)ccc34)n(-c3ccc4c(c3)n(C)c(=O)n4C)c2c1,0.5 to 5
17,CNS(=O)(=O)c1ccc2nc(-c3cnn(-c4ccccc4)c3F)n(-c3ccc4c(c3)n(C)c(=O)n4C)c2c1,> 5
18,Cn1c(=O)n(C)c2cc(-n3c(-c4cc5ccccc5[nH]4)nc4c(Cl)ncnc43)ccc21,> 5
19,Cc1ccc2c(-c3nc4ccccc4n3-c3ccc4c(c3)n(C)c(=O)n4C)c[nH]c2c1,> 5
20,CN(C)c1ncnc2c1nc(-c1c[nH]c3cc(F)ccc13)n2-c1ccc2c(c1)n(C)c(=O)n2C,0.5 to 5
21,CNS(=O)(=O)c1ccc2nc(-c3c[nH]c4cccc(F)c34)n(-c3ccc4c(c3)n(C3CC3)c(=O)n4C3CC3)c2c1,> 5
22,CNS(=O)(=O)c1ccc2nc(-c3c[nH]c4c(C5CC5)cccc34)n(-c3ccc4c(c3)n(C)c(=O)n4C)c2c1,0.5 to 5

# Next, values leading:
row,IC50 [µM],Compound
1,> 5,CNS(=O)(=O)c1ccc2nc(-c3cc4ccccc4cc3OC)n(-c3ccc4c(c3)n(C)c(=O)n4C)c2c1
2,0.5 to 5,CNS(=O)(=O)c1ccc2nc(-c3c[nH]c4cc(F)ccc34)n(-c3ccc4c(c3)n(C)c(=O)n4C)c2c1
3,> 5,CCn1ccc2c(-c3nc4c(N(C)CCCN5CCCCCC5)ncnc4n3-c3ccc4c(c3)n(C)c(=O)n4C)cccc21
4,0.5 to 5,CNS(=O)(=O)c1ccc2nc(-c3c[nH]c4ccc(C#N)cc34)n(-c3ccc4c(c3)n(C)c(=O)n4C)c2c1
5,0.5 to 5,CNS(=O)(=O)c1ccc2nc(-c3c[nH]c4ccccc34)n(-c3ccc4c(c3)n(C)c(=O)n4C)c2c1
6,0.5 to 5,CNS(=O)(=O)c1ccc2nc(-c3c[nH]c4c(Cl)cccc34)n(-c3ccc4c(c3)n(C)c(=O)n4C)c2c1
7,0.5 to 5,CNS(=O)(=O)c1ccc2nc(-c3cccc(-c4cnn(C)c4)c3)n(-c3ccc4c(c3)n(C)c(=O)n4C)c2c1
8,> 5,Cc1ccc2c(-c3nc4c(N(C)C)ccnc4n3-c3ccc4c(c3)n(C)c(=O)n4C)c[nH]c2c1
9,0.5 to 5,Cc1ccc2c(-c3nc4c(N(C)C)nccc4n3-c3ccc4c(c3)n(C)c(=O)n4C)c[nH]c2c1
10,> 5,Cc1ccc2c(-c3nc4c(Cl)ncnc4n3-c3ccc4c(c3)n(C)c(=O)n4C)c[nH]c2c1
11,> 5,Cn1c(=O)n(C)c2cc(-n3c(-c4cnc[nH]4)nc4c(Cl)ncnc43)ccc21
12,> 5,CNS(=O)(=O)c1ccc2nc(C(=O)Nc3ccncc3)n(-c3ccc4c(c3)n(C)c(=O)n4C)c2c1
13,> 5,Cc1cccc(OCCN(C)c2ncnc3c2nc(-c2c[nH]c4cc(Cl)ccc24)n3-c2ccc3c(c2)n(C)c(=O)n3C)c1
14,> 5,CN(CCCn1cc(Cl)cn1)c1ncnc2c1nc(-c1c[nH]c3cc(Br)ccc13)n2-c1ccc2c(c1)n(C)c(=O)n2C
15,> 5,Cc1ccc2c(-c3nc4ccccc4n3-c3ccc4c(c3)n(C)c(=O)n4C)cn(C)c2c1
16,> 5,CNC(=O)c1ccc2nc(-c3cc4ccccc4cc3OC)n(-c3ccc4c(c3)n(C)c(=O)n4C)c2n1
17,> 5,COc1ccc2c(CCN(C)c3ncnc4c3nc(-c3ccn(C(C)C)c3)n4-c3ccc4c(c3)n(C)c(=O)n4C)c[nH]c2c1
18,0.5 to 5,CNS(=O)(=O)c1ccc2nc(-c3c[nH]c4cc(C5=CCN(C(=O)OC(C)(C)C)CC5)ccc34)n(-c3ccc4c(c3)n(C)c(=O)n4C)c2c1
19,> 5,CN(CCCN1CCCCCC1)c1ncnc2c1nc(-c1cc3cccnc3[nH]1)n2-c1ccc2c(c1)n(C)c(=O)n2C
20,> 5,Cc1ccnc(-n2c(C)cc(-c3nc4c(N(C)CCN(C)c5ccccc5)ncnc4n3-c3ccc4c(c3)n(C)c(=O)n4C)c2C)c1
21,0.5 to 5,Cc1ccc2c(-c3nc4ccc(S(=O)(=O)NC(C)C)cc4n3-c3ccc4c(c3)n(C)c(=O)n4C)c[nH]c2c1
